# Assay results taken from US8916565B2, “Pyrrolopyrazine-spirocyclic piperidine amides as modulators of ion channels” (priority 2011, dated 2014).
# Sequences of proteins named here, by UniProt entry; tags and fusion partners are left off.
# UniProt Q15858, whole entry: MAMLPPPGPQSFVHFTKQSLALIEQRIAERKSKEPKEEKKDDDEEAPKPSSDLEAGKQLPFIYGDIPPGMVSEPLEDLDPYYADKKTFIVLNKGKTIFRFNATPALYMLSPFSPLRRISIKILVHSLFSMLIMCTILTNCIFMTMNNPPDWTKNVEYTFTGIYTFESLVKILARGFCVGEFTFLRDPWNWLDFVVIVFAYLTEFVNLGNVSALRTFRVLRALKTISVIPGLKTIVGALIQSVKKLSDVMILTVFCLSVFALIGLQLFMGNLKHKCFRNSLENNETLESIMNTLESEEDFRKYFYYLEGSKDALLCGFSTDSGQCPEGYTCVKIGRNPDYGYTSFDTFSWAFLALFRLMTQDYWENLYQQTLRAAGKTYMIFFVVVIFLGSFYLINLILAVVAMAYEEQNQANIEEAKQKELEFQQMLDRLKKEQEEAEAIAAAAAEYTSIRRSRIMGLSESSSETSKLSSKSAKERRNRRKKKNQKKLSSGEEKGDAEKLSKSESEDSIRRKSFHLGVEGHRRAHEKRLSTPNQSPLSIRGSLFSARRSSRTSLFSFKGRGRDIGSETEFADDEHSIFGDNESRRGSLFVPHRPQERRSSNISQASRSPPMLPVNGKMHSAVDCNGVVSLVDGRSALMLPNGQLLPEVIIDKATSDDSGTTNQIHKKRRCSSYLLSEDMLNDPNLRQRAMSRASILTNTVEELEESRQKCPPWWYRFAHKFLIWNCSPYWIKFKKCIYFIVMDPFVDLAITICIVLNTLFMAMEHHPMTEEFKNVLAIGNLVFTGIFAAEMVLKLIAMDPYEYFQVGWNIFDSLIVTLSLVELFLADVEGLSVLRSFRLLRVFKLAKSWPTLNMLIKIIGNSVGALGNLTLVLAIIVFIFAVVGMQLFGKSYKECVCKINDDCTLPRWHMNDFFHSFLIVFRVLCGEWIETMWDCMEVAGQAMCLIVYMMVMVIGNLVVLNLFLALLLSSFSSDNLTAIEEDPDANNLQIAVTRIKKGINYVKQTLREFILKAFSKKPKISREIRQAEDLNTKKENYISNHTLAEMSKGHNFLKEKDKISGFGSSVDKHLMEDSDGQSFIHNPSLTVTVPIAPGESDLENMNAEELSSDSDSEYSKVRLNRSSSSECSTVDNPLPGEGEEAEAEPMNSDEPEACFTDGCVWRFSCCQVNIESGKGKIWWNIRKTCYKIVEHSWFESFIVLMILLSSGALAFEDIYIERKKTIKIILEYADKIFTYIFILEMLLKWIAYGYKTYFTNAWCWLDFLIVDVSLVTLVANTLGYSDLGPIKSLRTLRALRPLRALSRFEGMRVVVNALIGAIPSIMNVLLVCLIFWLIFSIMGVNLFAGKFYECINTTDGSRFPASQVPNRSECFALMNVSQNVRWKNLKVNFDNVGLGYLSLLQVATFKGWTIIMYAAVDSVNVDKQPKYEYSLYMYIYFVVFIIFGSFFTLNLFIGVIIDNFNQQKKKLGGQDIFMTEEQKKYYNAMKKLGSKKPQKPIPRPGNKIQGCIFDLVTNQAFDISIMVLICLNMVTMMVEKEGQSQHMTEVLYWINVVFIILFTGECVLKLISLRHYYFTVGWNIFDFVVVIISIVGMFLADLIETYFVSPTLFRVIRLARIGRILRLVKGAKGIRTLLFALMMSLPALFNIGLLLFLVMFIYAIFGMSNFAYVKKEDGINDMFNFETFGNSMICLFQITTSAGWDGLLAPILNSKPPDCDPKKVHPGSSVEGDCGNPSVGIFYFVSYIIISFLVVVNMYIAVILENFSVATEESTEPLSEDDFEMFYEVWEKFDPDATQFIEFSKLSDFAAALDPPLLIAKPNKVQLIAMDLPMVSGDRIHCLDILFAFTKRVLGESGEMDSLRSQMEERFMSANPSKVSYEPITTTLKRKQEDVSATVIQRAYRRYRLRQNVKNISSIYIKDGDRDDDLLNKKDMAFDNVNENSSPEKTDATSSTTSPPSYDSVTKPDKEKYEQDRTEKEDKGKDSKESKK
# Molecular target: human NaV subtype, like NaV 1.7 (Homo sapiens, UniProt Q15858)
# Assay: E-VIPR optical membrane potential assay with electrical stimulation
# Type: cell-based
# Conditions: read-out: Binned Activity Data (IC50); active against one or more sodium channels; Table 3 does not name the assay or NaV subtype
row,Structure (SMILES),IC50
1,CC(C)CS(=O)(=O)c1ccc(C(=O)N2CCC3(CC2)c2ccc(C(=O)C(C)(C)C)n2CCN3C)cc1,< 2000 nM
2,CCC(=O)c1ccc2n1CCN(C)C21CCN(C(=O)c2ccc(N3CCCCC3)cc2)CC1,< 2000 nM
